Yeast mating assay B: variants of the scFv Ab-14

The target is the same throughout: PDVDLGDISGINAS, from the HR2 region of SARS-CoV-2 spike.

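Phage display of a naive human antibody library on the peptide gave the parent. These sequences belong to a second round, designed from the earlier measurements on random variants of the parent. Group labels follow the data file (Ctrl: baseline library sampled from a position-specific scoring matrix, with some repeated check sequences; Rand: our label for a block that the file lists under HC and that is probably the random mutants of the ten best first-round binders; En: ensemble of fine-tuned language models; GP: Gaussian process model; HC: hill climbing; Gen: genetic algorithm; Gibbs: Gibbs sampling; a sequence that several methods proposed may carry one label only). In AlphaSeq, yeast of one mating type display the scFv and yeast of the other type display the target. The frequency of each diploid, read from paired DNA barcodes, reflects how well the two displayed proteins bind. Each replicate has its own calibration line, from reference interactions of the BCL2 family. There are six technical replicates.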

The variants keep the heavy chain, the linker and the frameworks of Ab-14 (scFv order VH, three GGGGS repeats, VL).
VH: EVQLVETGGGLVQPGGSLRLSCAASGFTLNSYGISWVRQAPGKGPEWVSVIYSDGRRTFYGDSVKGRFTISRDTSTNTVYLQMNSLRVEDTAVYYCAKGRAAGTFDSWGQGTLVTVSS
VL: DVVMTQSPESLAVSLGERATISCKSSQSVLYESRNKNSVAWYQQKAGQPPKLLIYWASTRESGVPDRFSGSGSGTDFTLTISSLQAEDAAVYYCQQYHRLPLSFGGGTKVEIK

Each variant is given by its three light chain CDRs, as the data file delimits them; those of the parent are KSSQSVLYESRNKNSVA, WASTRES, QQYHRLPLS.
The read-out is the apparent dissociation constant on a log10 scale (nM): the lower, the stronger.
Replicates are averaged; those with no signal do not enter the mean.
"nd" marks a missing value. The strain was present, yet no cells mated with the target were sequenced in any replicate, which points to weak or no binding.
Order: sorted from the lowest average up, undetected variants last.
Three control strains display no target. For all light chain designs, 4% of the pairings with them gave a signal, with a median of 2.64 and one signal in twenty below 1.59, so weak values seen in few replicates may be background.

"mean, log10 nM",seen in,CDR-L1,CDR-L2,CDR-L3,group
-0.56,6/6,TLTQVQGMESHNKDNVA,DLSTRGN,QQYNRLPLS,En_HC
-0.44,6/6,KLSQSVLYEERNKNSVA,NASQRES,QQYHRLPLS,GP_Gen
-0.25,6/6,KLSQGVLMESRNKNSVA,NAGQREE,QQYHRLPLS,GP_Gibbs
-0.21,6/6,KQSQSDLPESRNKNSVA,DASTRES,QQYHRLPLS,GP_HC
-0.20,6/6,KLDQSDLMESRNWNSVA,QASTREI,QQYHRLPLS,GP_Gibbs
-0.14,6/6,KLSGSFMMLSRNDNSVA,DASTRES,QQYHRLPLS,GP_Gibbs
-0.09,6/6,KLSQSVLYGQRNKNSVA,EASTRMS,QQYHRLPLY,GP_Gibbs
-0.07,6/6,KLSQSQLYESRNKNSVA,NASERES,QQYHRLPLS,GP_Gen
-0.06,6/6,QLDLKMNEQGMQPSAIA,GATNRFT,QQYQKLPLS,En_Gibbs
-0.01,6/6,KLSQSVLYESRNKNSVA,NASYREV,QQYHRLPLS,GP_Gen
0.00,6/6,KYSISYLEESRNKNSVA,EASTRES,QQYHRLPLS,GP_HC
0.02,6/6,TIGQSTLMESRNRNNVA,QMSTREK,QQYDRLPLS,En_HC
0.08,6/6,KLSQSVLYESRNKNSVA,NASTRMV,QQYHRLPLS,GP_Gen
0.09,6/6,KLRQSPLYESRNKNSVA,NASTRES,QQYHRLPLS,GP_HC
0.13,6/6,KVSQSEDYGSRNKWSVA,NASTRES,QQYHRLPLS,GP_Gibbs
0.15,6/6,RQSQSVLMESRNKNSVA,DASTRES,QQYHRLPLS,GP_HC
0.19,6/6,HIELGTWGVQKYDSSVA,HASQRQE,QQYYQLPLT,En_Gibbs
0.22,6/6,KLQQQNLYESRNKNNVA,EATQREQ,QQYHRLPLS,GP_Gibbs
0.33,6/6,KISQSWLYESRNKNSVA,NASTRLS,QQYHRLPLS,GP_Gen
0.33,6/6,KASQSVKFESRNKNSVA,DASTRES,QQYHRLPLS,GP_HC
0.34,6/6,TISTSALYESINKNNVA,ELSTRGS,QQYERLPLS,En_HC
0.45,6/6,TISQSAHQESHNKNSVA,DLNVRGS,QQYDRLPLS,En_HC
0.51,6/6,KSLQQWLYESRNKNSVA,HASTREQ,QQYHRLPLS,GP_HC
0.65,6/6,SLMQVAGYESNNKNSIA,DLRTRES,QQYHRLPLS,En_HC
0.66,6/6,KLSMITGHMSVSKNNVA,EMETRFN,QQYDRLPLS,En_Gen
0.74,6/6,KVSEMTAFLSSNRNNVA,DNSTRGS,QQYHRLPLS,En_HC
0.89,6/6,KVGAYPQGVEQDMQNVA,EGSYASR,QQYHRLPLS,En_Gibbs
0.97,6/6,MISQNIYGMYRMRDNVA,HASMRED,QCYDRLPLS,En_Gen
1.12,6/6,NLSDGEMYENATRSHIA,DTSMRDF,QQYNRLPLI,En_Gibbs
1.27,1/6,KSLQSVLYESRNGNSVA,WASTRES,QQYHRLPLS,Ctrl
1.27,6/6,KSSQSMLYESRNKNDVA,AASTRES,QDYHRLPLS,Ctrl
1.43,6/6,MISQLYNMGSFAINSVA,QASERCN,QQYDRLPLM,En_Gen
1.45,5/6,KSSQSDLGESRNKNSVA,WASTRES,QQYHRLPLS,Ctrl
1.45,3/6,KSSQSVLGQSRNKNSVA,WASTRES,QQYHRLPLS,Ctrl
1.48,6/6,HMSMLTMMGMRQRNSVA,QMTMREN,QQYDRLPLM,En_Gen
1.60,1/6,KSSQSVLYESRNLNSVA,WASTREQ,QQYHRLPLS,Ctrl
1.61,6/6,AVSIEHKENTAYWNAIA,DTSLRNN,QQYDQLPLS,En_Gibbs
1.72,6/6,KIAYQADMYGVQCNNVA,HADIREP,QQYFKLPLN,En_Gibbs
2.00,1/6,KVDQSNLCEQRNKNSVA,SASLRFS,QQYHRLPLS,GP_Gibbs
2.09,6/6,KSSQSVQQESTNKNSVA,WASTRES,QQYHRLPLS,Ctrl
2.14,3/6,MISINQSNYGGMRSAIA,DTNLARM,QQYYHLPLM,En_Gibbs
2.43,3/6,TISQSTYWESFNKNNVA,QTSTREE,QDYDRLPLS,En_HC
2.85,4/6,KISYLQNQTFEESNNVA,EMVTREK,QQYNRLPLS,En_Gen
3.10,3/6,KSLQSVLYESRNKNSVA,HASTRED,QQYHQLPWS,Rand
nd,0/6,KQSQSVLYESRNKNSVA,WASTRES,QNYHRLPLS,Ctrl
nd,0/6,KLYQNVGTMSHNKASIA,DMERRED,QQYHRLPLS,En_HC
nd,0/6,KLSMQVMMESRNKNSVA,SANTREE,QQYHRLPLS,GP_Gibbs

Picked from the list: the 7 lowest averages where every replicate gave a value.

CDR-L1,CDR-L2,CDR-L3,group,"mean, log10 nM",seen in
TLTQVQGMESHNKDNVA,DLSTRGN,QQYNRLPLS,En_HC,-0.56,6/6
KLSQSVLYEERNKNSVA,NASQRES,QQYHRLPLS,GP_Gen,-0.44,6/6
KLSQGVLMESRNKNSVA,NAGQREE,QQYHRLPLS,GP_Gibbs,-0.25,6/6
KQSQSDLPESRNKNSVA,DASTRES,QQYHRLPLS,GP_HC,-0.21,6/6
KLDQSDLMESRNWNSVA,QASTREI,QQYHRLPLS,GP_Gibbs,-0.20,6/6
KLSGSFMMLSRNDNSVA,DASTRES,QQYHRLPLS,GP_Gibbs,-0.14,6/6
KLSQSVLYGQRNKNSVA,EASTRMS,QQYHRLPLY,GP_Gibbs,-0.09,6/6

The authors averaged sequences with at least three values out of six and counted those with two or fewer as poor binders.
Values of this round are not directly comparable with the first-round values of the same sequences.

From the AlphaSeq antibody data of Li et al. 2023 (doi:10.1038/s41467-023-39022-2), copy in the FLAb collection.